PubChem BioAssay AID740 (SRMLSC, 2007)
Only a part is listed here, and it is no random draw. The source made the active and inactive calls. Rule as the data show it: active = inhibition above about 25%; inactive = the rest.

Assay: unspecified inhibition readout at 50 µM (AID 740)
Conditions: unspecified screen; hits give high values

Row | Structure (SMILES) | inhibition
1 | N#CC1(Nc2ccccc2)CCN(CCc2ccccc2)CC1 | inactive: 0.26%
2 | O=C(NCC1(N2CCOCC2)CCCCC1)c1cc2ccccc2o1 | inactive
3 | O=C(OC1CN2CCC1CC2)C1c2ccccc2Oc2ccccc21 (stereo not drawn) | inactive
4 | COc1ccc(NC2CCN(CCc3ccccc3)CC2)c(OC)c1 | inactive
5 | CCC(CO)(C(=O)OC1CN2CCC1CC2)c1ccccc1 (stereo not drawn) | inactive: 0.34%
6 | CCOc1ncccc1C(=O)NCC1(N2CCOCC2)CCCCC1 | inactive: 0.6%
7 | N/C(=N\O)c1c(N)no[n+]1[O-] | inactive
8 | c1ccc(CN2CCC(Nc3ccccc3)CC2)cc1 | inactive
